Values quoted from earlier work as cited in US11236066B2, “Crystalline forms of niraparib tosylate” (Apotex Inc., priority 2019, dated 2022).

Columns and labels:
[1] = CHMP Assessment Report description; cited from earlier work
[2] = CHMP Assessment Report description; cited from earlier work; remark: listed apart in the source

Question: Which Aqueous solubility [1] does the source give for `Cc1ccc(S(=O)(=O)O)cc1.NC(=O)c1cccc2cn(-c3ccc([C@@H]4CCCNC4)cc3)nc12` [Niraparib tosylate crystalline Form I, 2-{4-[(3S)-piperidin-3-yl]phenyl}-2H-indazole 7-carboxamide 4-methylbenzenesulfonate] here?
Answer: low, pH-independent

Question: What about the Permeability [2] of the same compound?
Answer: high
